pIC50: −log10 of the molar value.

Amino acid sequences for entries named in this document (tags omitted). A change or cut given only in a name is not applied to a line headed by its entry.
UniProt O14649: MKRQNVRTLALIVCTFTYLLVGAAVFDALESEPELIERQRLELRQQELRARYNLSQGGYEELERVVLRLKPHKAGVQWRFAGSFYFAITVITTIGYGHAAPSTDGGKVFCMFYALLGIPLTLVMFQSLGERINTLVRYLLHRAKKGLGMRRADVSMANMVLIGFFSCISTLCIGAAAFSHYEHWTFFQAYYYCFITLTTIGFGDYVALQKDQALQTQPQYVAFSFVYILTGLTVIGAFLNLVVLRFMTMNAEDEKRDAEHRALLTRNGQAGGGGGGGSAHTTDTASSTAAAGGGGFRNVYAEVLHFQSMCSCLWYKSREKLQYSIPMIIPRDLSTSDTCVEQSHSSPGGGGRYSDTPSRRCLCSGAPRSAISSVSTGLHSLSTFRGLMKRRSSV

Consider one substance from patent US9884860B2, “Fused pyrroledicarboxamides and their use as pharmaceuticals” (SANOFI, priority 2012, dated 2018).

This assay deals with Human TASK-1 channels (Homo sapiens (Human), UniProt O14649). Kind of assay: Determination of the activity on the TASK-1 channel in Xenopus oocytes (two-microelectrode voltage clamp). It is filed as cell-based. The conditions noted are these: human TASK-1 expressed in Xenopus oocytes, room temperature; read-out: IC50 value for TASK-1 inhibition. As for the experimental part: Determination of the activity on the TASK-1 channel in Xenopus oocytes
Human TASK-1 channels were expressed in Xenopus oocytes. For this purpose, oocytes were isolated from Xenopus laevis and defoliculated. Subsequently, TASK-1-encoding RNA synthesized in vitro was injected into the oocytes. After two days of TASK-1 protein expression, TASK-1 currents were measured by two-microelectrode voltage clamp. Data were acquired and analyzed using a TEC-10cx amplifier (NPI Electronic, Tamm, Germany) connected to an ITC-16 interface (Instrutech Corp., Long island, USA) and Pulse software (HEKA Elektronik, Lambrecht, Germany). Oocytes were clamped to −90 mV and TASK-1 mediated currents were measured during 500 ms voltage pulses to 40 mV. Oocytes were continuously superfused with ND96 buffer containing 98 mM sodium chloride, 2 mM potassium chloride, 1.8 mM calcium chloride, 1 mM magnesium chloride, 5 mM 4-(2-hydroxyethyl)-piperazine-1-ethanesulfonic acid (HEPES: pH adjusted to 7.4 with sodium hydroxide). All experiments were performed at room temperature. Test compounds were consecutively added to the bath solution at rising concentrations. Compound effects were calculated as the percentage inhibition of TASK-1 control current before compound addition. IC50 values were obtained by fitting the data to the general dose-response equation.

In the case of “3,4-Dihydro-1H-pyrrolo[2,1-c][1,4]thiazine-6,8-dicarboxylic acid 8-{[(R)- 1-(4-fluoro-phenyl)-ethyl]-amide} 6-[((R)-1-phenyl-propyl)-amide] [16kq]”, the pIC50 was 7.34.

Usually pIC50 stands for the negative decadic logarithm of the IC50, by convention in mol/L.
